Literature values in US9272037B2, “Method to treat premature ejaculation in humans” (priority 2005, dated 2016).

By UniProt entry, the sequences of proteins in these tests, tags left out.
UniProt P35372, whole entry: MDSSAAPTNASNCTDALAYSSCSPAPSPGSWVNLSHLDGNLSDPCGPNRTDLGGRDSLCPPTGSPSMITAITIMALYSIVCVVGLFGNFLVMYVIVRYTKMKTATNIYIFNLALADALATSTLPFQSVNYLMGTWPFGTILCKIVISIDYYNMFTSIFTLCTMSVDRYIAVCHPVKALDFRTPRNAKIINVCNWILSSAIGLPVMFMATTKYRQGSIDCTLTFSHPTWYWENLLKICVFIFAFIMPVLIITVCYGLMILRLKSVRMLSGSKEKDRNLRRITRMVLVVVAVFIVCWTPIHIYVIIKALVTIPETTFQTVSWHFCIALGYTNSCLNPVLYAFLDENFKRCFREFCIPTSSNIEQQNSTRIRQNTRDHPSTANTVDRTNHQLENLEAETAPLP

Molecular target: μ-opiate receptors (Homo sapiens, UniProt P35372)
Conditions: versus tramadol

Compound: CN(C)C[C@H]1CCCC[C@]1(O)c1cccc(O)c1 [O-desmethyltramadol (M1), O-desmethyltramadol]
- affinity for opiate receptors relative to the parent drug tramadol: higher affinity
